Tested on: B5 and SH-SY5Y cells
Experiment: Competition of 125I-LIP2 binding
Parameters: species or system human
Conditions: 2 μM competitor, preincubated 1 h at 4°C, 10 nM 125I-LIP2

## leucine enkephalin
  Inhibition of 125I-LIP2 binding (in words): No significant inhibitory effect

Source: paper PMC2134812 (The Journal of Cell Biology, 1997)
